Results on one compound are retold here after patent US20050187288A1, “Beta-lapachone and methods of treating cancer” (priority 2004, published 2005).

Data set [1] in a line: Study 6B: two week intravenous repetitive dose toxicity study in rats. As to conditions: 45 mg/kg up to twice daily for 14 days.
Data set [2] in a line: Study 1A: repetitive weekly intravenous toxicity study in rats.
The nature of data set [3]: Study 5B: four week intravenous toxicity study in rats. As to conditions: 45 mg/kg dose group.
Data set [4] can be described thus: Study 1B: dose-range-finding single dose intravenous toxicity study in rats. As to conditions: 60 mg/kg dose group.
Data set [5] can be described thus: Study 2A: repetitive weekly intravenous toxicity study in dogs. As to conditions: 5, 15, 35 mg/kg weekly x 4.

In the case of `CC1(C)CCC2=C(O1)c1ccccc1C(=O)C2=O` [β-lapachone, 3,4-dihydro-2,2-dimethyl-2H-naphtho [1,2-b]pyran-5,6-dione], the overall outcome in data set [1] is “clinical signs of toxicity including lower body weight gains and food consumption”. Further, in data set [2] (high dose animals), the histopathological findings entry was “hemosiderosis and extramedullary hematopoiesis in liver and spleen”. In addition, in data set [2] (high dose animals, Day 2 after first dose, normal on Day 23), the “CK and AST” value is “Slight increases”. For the same compound, the “mortality and clinical signs” value in data set [2] (low- (10 mg/kg) and mid-dose (25 mg/kg) toxicology groups) was “no mortality or clinical signs of toxicity”. In addition, the mortality result is “no mortality” in data set [3], “no mortality” in data set [4] and “no early deaths” in data set [5].
